The values below come from patent US20240190851A1, “FURAN FUSED RING-SUBSTITUTED GLUTARIMIDE COMPOUND” (MEDSHINE DISCOVERY INC., priority 2021, published 2024).

Chains of the proteins cited; added tags and fusions are not shown.
UniProt P10275, whole entry T878A: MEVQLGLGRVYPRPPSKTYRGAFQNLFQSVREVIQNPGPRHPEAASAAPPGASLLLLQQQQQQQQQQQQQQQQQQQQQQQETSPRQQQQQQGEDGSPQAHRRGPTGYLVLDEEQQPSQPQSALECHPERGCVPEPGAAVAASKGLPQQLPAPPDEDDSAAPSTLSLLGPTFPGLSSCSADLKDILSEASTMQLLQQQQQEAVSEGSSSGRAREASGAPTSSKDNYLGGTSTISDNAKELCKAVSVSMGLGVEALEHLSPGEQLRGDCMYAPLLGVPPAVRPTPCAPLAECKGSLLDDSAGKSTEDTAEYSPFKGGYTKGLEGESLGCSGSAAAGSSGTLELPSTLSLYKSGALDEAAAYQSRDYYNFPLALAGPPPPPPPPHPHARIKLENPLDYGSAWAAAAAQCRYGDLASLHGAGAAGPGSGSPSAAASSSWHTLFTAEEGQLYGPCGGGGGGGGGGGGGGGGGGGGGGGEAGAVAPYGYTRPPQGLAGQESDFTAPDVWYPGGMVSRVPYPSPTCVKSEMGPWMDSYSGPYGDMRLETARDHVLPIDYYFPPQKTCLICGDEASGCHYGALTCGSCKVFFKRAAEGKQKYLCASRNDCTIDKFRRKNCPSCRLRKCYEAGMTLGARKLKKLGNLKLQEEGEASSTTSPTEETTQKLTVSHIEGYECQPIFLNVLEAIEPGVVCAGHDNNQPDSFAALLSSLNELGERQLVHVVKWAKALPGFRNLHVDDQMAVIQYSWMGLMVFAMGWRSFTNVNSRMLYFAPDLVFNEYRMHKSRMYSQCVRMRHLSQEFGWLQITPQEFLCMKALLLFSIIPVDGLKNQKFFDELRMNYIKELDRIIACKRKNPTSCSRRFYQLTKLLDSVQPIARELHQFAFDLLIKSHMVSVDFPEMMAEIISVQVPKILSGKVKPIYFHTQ

Broadly, the DC50 is the midpoint of the concentration-degradation curve. Low values mean a more potent degrader, high ones a less potent degrader. By Dmax is commonly meant the greatest extent of degradation seen.

The nature of series [1]: Pharmacokinetic evaluation in rats. On the procedure: In this study, SD male rats were selected as experimental animals for the test compounds, and LCMS/MS method was used to quantify plasma concentrations of the test compound and the reference compound intravenously injected or orally administered to rats at different time points, so as to evaluate the pharmacokinetic profile of the test drug in rats.
SD rats (male, Beijing Vital River).
A clarified solution or suspension of the test compound was injected into rats via the tail vein (without fasting), or intragastrically administered to rats (without fasting). For intravenous injection, blood was collected via the jugular vein puncture at 0 h (pre-administration), 0.25 h, 0.5 h, 1 h, 2 h, 4 h, 6 h, 8 h, 24 h, and 48 h after administration, and placed in an anticoagulant tube added with heparin sodium. The collected blood sample was placed on ice, and centrifuged to separate plasma within 1 hour (centrifugation conditions: 6000 g, 3 minutes, 2 to 8° C.). For oral administration, blood was collected via the jugular vein puncture at 0 h (pre-administration), 0.25 h, 0.5 h, 1 h, 2 h, 4 h, 6 h, 8 h, 24 h, and 48 h after administration, and placed in an anticoagulant tube added with heparin sodium. The collected blood sample was placed on ice, and centrifuged to separate plasma within 1 hour (centrifugation conditions: 6000 g, 3 minutes, 2 to 8° C.). Plasma concentrations were determined by LC-MS/MS method, and relevant pharmacokinetic parameters were calculated using WinNonlin™ Version 8.2.0 (Pharsight, Mountain View, CA) pharmacokinetic software with non-compartmental model linear-log trapezoidal method.

In the next series the target is androgen receptor AR (Homo sapiens, UniProt P10275, T878A). Briefly: AR degradation in LNCaP cells by ICW method. To be noted: 24 hours. On the procedure:
Experimental purpose: To test the degradation effect of compounds on androgen receptor AR in LNCaP cells by ICW method.
Day 1 • 1. The cell culture medium, 0.025% trypsin, and phosphate buffered saline were preheated in a 37° C. water bath. • 2. Cells digested by trypsin were centrifuged at 1000 rpm for 5 minutes. The supernatant was discarded, and then the cells were resuspended in fresh culture medium. • 3. The cells were inoculated in a COL-Coated CellCarrier-384 plate at a density of 4 k/[…]/well. • 4. The 384 cell plate inoculated with cells was placed in an ultra-clean bench for 10 minutes. • 5. The cell plate was cultured overnight in a CO2 cell incubator.
Day 2 • 1. The compound at a concentration of 10 mM was diluted to 3 mM (3 μL+7 μL of dimethyl sulfoxide) before serial dilution. • 2. The compound was serially diluted 3-fold (4 μL+8 μL) in an Echo plate using Bravo. • 3. ZPE and HPE control wells were setup, and the ZPE control wells were dimethyl sulfoxide. • 4. The Echo plate was centrifuged at 1000 rpm for 1 minute, and then the diluted compound was transferred from the Echo plate to an intermediate plate using Echo with 200 nL/well. • 5. To the intermediate plate was added the cell culture medium using Multidrop combi with […]. • 6. The intermediate plate was shaken on a horizontal shaker for 1 minute to mix the compound well with the culture medium. • 7. The compound was transferred from the intermediate dilution plate to the cell plate using Bravo with 4 μL/well. • 8. The cell plate was shaken on the horizontal shaker for 1 minute, and centrifuged at 800 rpm for 30 seconds. • 9. The cell plate was returned to the CO2 incubator, and cultured for another 24 hours.
Day 3 • 1. 4% paraformaldehyde was removed from the refrigerator and brought to room temperature. • 2. The cell plate was removed from the incubator. • 3. To the cell plate was directly added 4% paraformaldehyde with 40 μL/well. • 4. The plate was incubated at room temperature for 20 minutes. • 5. The culture medium was manually shaken off from the cell plate, inverted in a centrifuge, and centrifuged at 800 rpm for 7 seconds to fully remove the residual culture medium. • 6. To the cell plate was added 4% paraformaldehyde with 25 μL/well. • 7. The plate was incubated at room temperature for 30 minutes. • 8. The paraformaldehyde solution was manually shaken off from the cell plate, inverted in the centrifuge, and centrifuged at 800 rpm for 7 seconds. • 9. 0.1% Trition was added with 25 μL/well. • 10. The plate was incubated at room temperature for 10 minutes. • 11. The 0.1% Trition solution was manually shaken off from the cell plate, inverted in the centrifuge, and centrifuged at 800 rpm for 7 seconds. • 12. Intercept® (PBS) blocking buffer was added with 25 μL/well. • 13. […]

Setting [2] is: intravenous injection (2 mg/mL).

Turning to `N#Cc1ccc(O[C@H]2CC[C@H](NC(=O)c3ccc(N4CCC(CN5CCN(c6cccc7c6ccc6occ(C8CCC(=O)NC8=O)c67)CC5)CC4)nn3)CC2)cc1Cl` (single isomer, unassigned) [WX016], in series [1] (setting [2]), the “Area under the drug-time curve (0-last)” value worked out at 6.949 µM·h, the Half-life came out at 21.2 h and the Plasma clearance rate was 4.71 mL/min/kg. Also, in series [1] (oral administration (10 mg/mL)), the “Area under the drug-time curve (0-last)” value is 14.716 µM·h, the “Bioavailability F” value was 42.35%, the Peak concentration stood at 451 nmol/L and the “Time to peak concentration” value is 13.3 h. On androgen receptor AR, this compound displayed a DC50 of 14 nM and a Dmax of 95.7%.

Turning to `N#Cc1ccc(O[C@H]2CC[C@H](NC(=O)c3ccc(N4CCC(CN5CCN(c6cccc7c6ccc6occ(C8CCC(=O)NC8=O)c67)CC5)CC4)nn3)CC2)cc1Cl` (single isomer, unassigned) [WX017], in series [1] (setting [2]), the “Area under the drug-time curve (0-last)” value was found to be 5.846 µM·h, the Half-life worked out at 10.2 h and the Plasma clearance rate is given as 6.86 mL/min/kg. For the same compound, in series [1] (oral administration (10 mg/mL)), the “Area under the drug-time curve (0-last)” value is 7.42 µM·h, the “Bioavailability F” value is 25.38%, the Peak concentration stood at 349 nmol/L and the “Time to peak concentration” value is listed as 7.33 h. Also, on androgen receptor AR, the DC50 is 15.1 nM and the Dmax was 100%.
